“And” between values parts separate entries of the source, which are not always exact repeats. Equal values may be shown once. Only a part is listed here, and it is no random draw. Some of these compounds have results that are not shown, active ones among them. The source made the active and inactive calls. No stated cut-off is given here; in the data, active means activity change below about -30%; inactive means the rest.
On the % scale 0 is the no-effect control and ±100 the full control effect.

Sequences of proteins named here, by UniProt entry; tags and fusion partners are left off.
UniProt P21728, whole entry: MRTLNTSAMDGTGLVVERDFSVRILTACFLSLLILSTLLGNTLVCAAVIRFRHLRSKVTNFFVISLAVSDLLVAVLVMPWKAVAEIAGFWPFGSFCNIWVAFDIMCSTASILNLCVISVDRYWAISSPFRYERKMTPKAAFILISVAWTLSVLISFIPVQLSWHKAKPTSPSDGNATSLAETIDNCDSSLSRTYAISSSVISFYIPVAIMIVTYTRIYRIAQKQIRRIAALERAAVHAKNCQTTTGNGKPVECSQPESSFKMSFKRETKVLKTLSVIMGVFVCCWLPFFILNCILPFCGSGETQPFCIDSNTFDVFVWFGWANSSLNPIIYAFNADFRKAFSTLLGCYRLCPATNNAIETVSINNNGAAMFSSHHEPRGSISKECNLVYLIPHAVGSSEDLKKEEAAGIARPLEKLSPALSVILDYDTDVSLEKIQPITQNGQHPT

The target in this test is D(1A) dopamine receptor (Homo sapiens) (UniProt P21728). Description: Antagonist of Human D 1 Dopamine Receptor: qHTS. The settings on record: HEK293 TREx D1 cells, calcium flux, dopamine EC80; at 10 µM; hits give low values. The source says: Dopamine receptors (DARs) are involved in the etiology and/or therapy of a number of neuropsychiatric and endocrine disorders. For instance, all receptor-based antiparkinsonian drugs work via stimulating the […] DAR subtype whereas all FDA-approved antipsychotic agents are antagonists of this receptor. […] There are three different types of allosteric modulators that we are seeking, two of which will stimulate or augment receptor signaling, allosteric agonists and potentiators, while the third, allosteric antagonists, will attenuate receptor signaling. The present primary screening assay measures compound antagonism after an EC80 addition of dopamine by tracking calcium flux in a […], inducible Hek293 Trex D1 cell line. NIH Chemical Genomics Center [NCGC] NIH Molecular Libraries Probe Centers Network [MLPCN] MLPCN Grant: NS064831-01 Assay Submitter (PI): David Sibley
Freshly passaged cells are plated in 1536 well black, clear bottom plates at a density of 4000 cells/well in 3 ul of complete media containing 1x tetracycline inducer. After an overnight incubation at 30 C in 5% CO2, cells are loaded with 2 ul of the no wash Calcium Assay Kit (ABD Bioquest) and incubated at room temperature for 30 to 90 minutes. Agonist read: A 10 cycle (1 second/cycle) baseline measurement is taken and then the FDSS online 1536 pintool delivers 23 nl of compound library (as well as dopamine controls) to the plate. The plate is measured for kinetically at 1 cycle/sec for 180 seconds. Following the 180 second read, 1 ul of an EC80 (negative modulation assay) is delivered by an onboard pipette head. Measurements are taken kinetically for an additional 180 seconds.
As for `O=C(NCC1(N2CCCCC2)CCCCC1)c1cc(F)c(F)cc1Cl`, the activity change, negative = inhibition is inactive: -6.21%.

Take `C=CCN1CCN(CCOC(=O)C(O)(c2ccccc2)c2ccccc2)CC1`: the activity change, negative = inhibition was inactive: 8.65%. Next, `O=C(NCC1(N2CCCCC2)CCCCC1)c1cccc(Br)c1`: inactive: 2.56%. Next, `Cc1cc(C(=O)NCC2(N3CCCCC3)CCCCC2)ccc1[N+](=O)[O-]`: inactive: 7.06%. Next, `CCN1CCCC(OC(=O)C2(O)c3ccccc3C=Cc3ccccc32)C1` (stereo not drawn): inactive: -6.2%; `CCOc1cccc(C(=O)NCC2(N(C)C)CCCCC2)c1`: inactive: -4.95%; `COc1ccc(C(=O)NCC2(N(C)C)CCCCC2)cc1`: inactive: -3.54%. In the case of `CN(C)C1CCCC1OC(=O)C(O)(c1ccccc1)c1ccccc1` (stereo not drawn), the activity change, negative = inhibition is inactive: -5.66%. For the compound `CN(C)c1ccc(C(=O)NCC2(N(C)C)CCCCC2)cc1`, the activity change, negative = inhibition is inactive: -2.68%.

Turning to `CN(C)C1(CNC(=O)c2ccccc2[N+](=O)[O-])CCCCC1`, the activity change, negative = inhibition was inactive: 7.23%. Next, `Cc1ccccc1C(=O)NCC1(N2CCCCC2)CCCCC1`: inactive: 14.7%; `CCCCOc1ccccc1C(=O)NCC1(N(C)C)CCCCC1`: inactive: -1.35%. Next, `CC(C)N1C(=O)CC2(CCN(CCOC(=O)C(O)(c3ccccc3)c3ccccc3)CC2)C1=O`: inactive: -7.26%; `COc1cc(SC)ccc1C(=O)NCC1(N(C)C)CCCCC1`: inactive: -6.58%; `CCN(CC)CC(C)C(C)OC(=O)C(O)(c1ccccc1)c1ccccc1` (stereo not drawn): inactive: -7.46%.

On to `CN(C)C1(CNC(=O)c2cccc(Cl)c2)CCCCC1`, for which the activity change, negative = inhibition is inactive: -7.53%. The value for `CN(C)C1(CNC(=O)c2ccccc2F)CCCCC1` was inactive: 1.96%; that for `Cc1ccc(C(=O)NCC2(N3CCCCC3)CCCCC2)cc1` was inactive: -4.58%. `O=C(NCC1(N2CCCCC2)CCCCC1)c1cc([N+](=O)[O-])ccc1Cl`: the activity change, negative = inhibition was inactive: 6.97%. Regarding `COc1ccc(Br)c(C(=O)NCC2(N3CCCCC3)CCCCC2)c1`, the activity change, negative = inhibition is inactive: 0.873%. The value for `Cc1cccc(C(=O)NCC2(N(C)C)CCCCC2)c1` was inactive: 9.66%; that for `COc1cc(C(=O)NCC2(N(C)C)CCCCC2)cc(OC)c1OC` was inactive: -4.52%. The value for `CN(C)c1cccc(C(=O)NCC2(N(C)C)CCCCC2)c1` was inactive: 0.275%. The value for `CC(C)Oc1ccc(C(=O)NCC2(N(C)C)CCCCC2)cc1` was inactive: -4.35% and inactive: 7.2%; that for `O=C(OC1CN2CCC1CC2)C(CO)(c1ccccc1)c1ccccc1` (stereo not drawn) was inactive: 3.52%; that for `COc1cccc(C(=O)NCC2(N3CCOCC3)CCCCC2)c1` was inactive: -6.87%. As for `CC(C)COc1ccc(C(=O)NCC2(N(C)C)CCCCC2)cc1`, the activity change, negative = inhibition was inactive: 1.91%. The value for `COc1ccc(C(=O)NCC2(N(C)C)CCCCC2)cc1Cl` was inactive: 4.83%; that for `COc1ccc(Cl)cc1C(=O)NCC1(N(C)C)CCCCC1` was inactive: -0.252%; that for `COc1cccc(C(=O)NCC2(N3CCCCC3)CCCCC2)c1` was inactive: -16.1%. As for `O=C(NCC1(N2CCCCC2)CCCCC1)c1cccc(Cl)c1`, the activity change, negative = inhibition was inactive: 0.29%. Next, `CN(C)C1(CNC(=O)c2ccc(Br)cc2)CCCCC1`: inactive: -0.345%. The value for `COc1cc(C(=O)NCC2(N(C)C)CCCCC2)c([N+](=O)[O-])cc1OC` was inactive: -13.1%.

Values taken from PubChem BioAssay AID504652 (National Center for Advancing Translational Sciences (NCATS), 2011).
